High-throughput results: PubChem BioAssay, National Center for Advancing Translational Sciences (NCATS)
Only some compounds are listed: those with a hit (about 16% of all), similar ones and a draw of the others.
DT40 TDP1 CPT – DT40-hTDP1 cell growth loss with CPT | hit rate 12% among 420,000 | Potency, µM (series often up to 46.2 µM), without a hit: top-dose activity change, negative = growth inhibition, most hits filed as inhibitors | chicken DT40 Tdp1-/-;hTDP1 cells + 20 nM CPT, ATP luminescence, 48 h; also: potency is read from the fitted curve at half-maximal effect; % is scaled to controls: 0 for no effect and ±100 for the full control effect; nearly all actives have a fitted effect of over 55% in size
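Cell growth measured by CellTiter-Glo luminescence after a minimum 48 h, 37 C compound exposure with 20 nM CPT in Tdp1-knockout DT40 cells stably expressing hTDP1, seeded 400/well; qHTS titration format.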
uPA surface inh – blocks generation of uPA at the cell surface; hit rate 0.31% among 330,000; Potency, µM (top dose mostly 38.3 µM), inactives show top-dose activity change, negative = inhibition, most hits filed as inhibitors; cell surface uPA generation assay, qHTS; active = well fitted inhibition curve with a large enough effect; inconclusive = small, poorly fitted or top-dose-only effect; inactive = no such curve, though single readings can be large or run the other way; tested in mouse RAW 264.7 cells; also: potency is read from the fitted curve at half-maximal effect; % is scaled to controls: 0 for no effect and ±100 for the full control effect; nearly all actives have a fitted effect of over 55% in size
TDP1 inh – blocks human tyrosyl-DNA phosphodiesterase 1; recombinant TDP1, AlphaScreen DNA substrate cleavage; Potency, µM (top dose mostly 130 µM), for the others: at the highest dose activity change, negative = inhibition, most hits filed as inhibitors; hit rate 0.28% among 350,000; AID 485290; also: potency is read from the fitted curve at half-maximal effect; % is scaled to controls: 0 for no effect and ±100 for the full control effect; nearly all actives have a fitted effect of over 40% in size
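Steps: enzyme plus compound, 15 min RT; add biotin/phosphotyrosine-FITC oligonucleotide (15 nM final), react 5 min; add donor/acceptor beads (10 ug/ml final), 10 min; read AlphaScreen. Tdp1 at 1 nM final.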
DT40 TDP1 no CPT – qHTS for Inhibitors of human tyrosyl-DNA phosphodiesterase 1 (TDP1): qHTS in cells in absence of CPT. DT40 Tdp1-/- hTDP1 cells, no CPT, ATP luminescence, 48 h. Potency, µM (series often up to 46.2 µM), inactives show at the highest dose activity change, negative = growth inhibition, usual class: inhibitors. hit rate 15% among 420,000. AID 686978, 2013; also: potency is read from the fitted curve at half-maximal effect; % is scaled to controls: 0 for no effect and ±100 for the full control effect; nearly all actives have a fitted effect of over 55% in size
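Compound effects on proliferation are scored in DT40 Tdp1-/-;hTDP1 cells in the absence of CPT. ATP levels (CellTiter-Glo luminescence) are recorded after a ≥48 hr, 37 °C incubation.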
miR-21 FLuc – miR-21 reporter, rising signal; HeLa miR-21 FLuc reporter, luciferase, 48 h; Potency, µM (titrated, usually from 38.3 µM), without a hit: top-dose reporter change, positive = more light; AID 2288; 340,000 tested, under 10 active; active = well fitted rising curve with a large enough effect; inconclusive = small, poorly fitted or top-dose-only effect; inactive = no such curve, though single readings can be large or run the other way;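 further: % of control where 0% means no effect; miR-21 action dims this reporter so a rising signal means less miR-21 action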
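Luminescence from a firefly luciferase reporter carrying a miR-21 binding site downstream, stably expressed under a CMV promoter in HeLa cells that make miR-21 endogenously, reports miRNA modulation after 48 h compound exposure up to approximately 40uM final.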
The depositor's hits bear a star; [ ] = remark or other dose. Unless noted, calls follow the shape of the dose curve; as a rule, active = well fitted curve in the direction sought with a large enough effect; inconclusive = small, poorly fitted or top-dose-only effect, or another doubt; inactive = no such curve, though single readings can be large; an effect the other way counts as inactive or inconclusive.

Results for Cc1ccc(C(NC(=O)NC(C)c2ccccc2)C(Cl)(Cl)Cl)cc1F (centres undefined) ?
DT40 TDP1 CPT: 18.4µM*; uPA surface inh: -7.5%; TDP1 inh: -3.2%; DT40 TDP1 no CPT: -85.2%; miR-21 FLuc: inconclusive

What do the screens show for `Cc1ccc(C(=O)OCC(=O)NCc2ccc(Cl)cc2)s1`?
DT40 TDP1 CPT: -39.8%; DT40 TDP1 no CPT: inconclusive

How did Cc1cccc(NC(=O)CSc2nc3ccc(NC(=O)c4cccs4)cc3s2)c1 do in these assays?
DT40 TDP1 CPT: 13µM*; TDP1 inh: -0.5%; DT40 TDP1 no CPT: 8.2µM*; miR-21 FLuc: 12.7%

What do the screens show for `O=C(COc1ccc(Cl)cc1)Nc1ccc(-c2nc3ccccc3s2)c(O)c1`?
DT40 TDP1 CPT: inconclusive; TDP1 inh: 4.0%[12.3 µM]; DT40 TDP1 no CPT: 18.4µM*; miR-21 FLuc: -23.8%

What do the screens show for `Cc1ccc(CSc2nc3ccc(NC(=O)COc4ccccc4F)cc3s2)cc1`?
DT40 TDP1 CPT: -29.3%; TDP1 inh: 1.6%; DT40 TDP1 no CPT: -26.9%; miR-21 FLuc: -8.4%

Results for Cc1ccc(C(=O)Nc2ccc(-c3nc4ccccc4s3)c(O)c2)c(C)c1 ?
DT40 TDP1 CPT: 10.3µM*; TDP1 inh: 3.3%; DT40 TDP1 no CPT: inconclusive; miR-21 FLuc: -53.5%

Results for Cc1ccccc1NC(=O)CSc1nc2ccc(NC(=O)COc3ccccc3F)cc2s1 ?
DT40 TDP1 CPT: 13µM*; TDP1 inh: -3.6%; DT40 TDP1 no CPT: 10.3µM*; miR-21 FLuc: 4.1%

What do the screens show for `COc1ccccc1C(=O)Nc1ccc(-c2nc3ccccc3s2)c(C)c1`?
DT40 TDP1 CPT: inconclusive; TDP1 inh: 3.4%; DT40 TDP1 no CPT: inconclusive; miR-21 FLuc: -58.3%

Results for O=C(CSc1nc2ccc(NC(=O)c3ccccc3C(=O)O)cc2s1)Nc1c(Cl)cccc1Cl ?
DT40 TDP1 CPT: 1.6%; uPA surface inh: 0.1%; TDP1 inh: 4.3%[0.0935 µM]; DT40 TDP1 no CPT: 5.8%; miR-21 FLuc: -15.3%

How did CN1CCN(C(=O)C2CCN(S(=O)(=O)c3ccccc3[N+](=O)[O-])CC2)CC1 do in these assays?
DT40 TDP1 CPT: -4.8%; uPA surface inh: -7.8%; TDP1 inh: 3.3%; DT40 TDP1 no CPT: -15.2%

Results for COc1ccc(NC(=O)CN2CCN(S(=O)(=O)N3CCCCCC3)CC2)cc1 ?
DT40 TDP1 CPT: 1.8%; uPA surface inh: 4.3%; DT40 TDP1 no CPT: -13.3%; miR-21 FLuc: 0.1%

Results for Cc1cccc(NC(=O)CSc2nc3ccc(NC(=O)COc4ccc(Cl)cc4)cc3s2)c1 ?
DT40 TDP1 CPT: 7.31µM*; TDP1 inh: -0.5%; DT40 TDP1 no CPT: 6.51µM*; miR-21 FLuc: 5.7%

An excerpt from above in order of length of the SMILES, descending.
Results for Cc1ccc(C(=O)Nc2ccc(-c3nc4ccccc4s3)c(O)c2)c(C)c1 ?
DT40 TDP1 CPT: 10.3µM*; TDP1 inh: 3.3%; DT40 TDP1 no CPT: inconclusive; miR-21 FLuc: -53.5%

Results for Cc1ccc(C(NC(=O)NC(C)c2ccccc2)C(Cl)(Cl)Cl)cc1F (centres undefined) ?
DT40 TDP1 CPT: 18.4µM*; uPA surface inh: -7.5%; TDP1 inh: -3.2%; DT40 TDP1 no CPT: -85.2%; miR-21 FLuc: inconclusive

What do the screens show for `Cc1ccc(C(=O)OCC(=O)NCc2ccc(Cl)cc2)s1`?
DT40 TDP1 CPT: -39.8%; DT40 TDP1 no CPT: inconclusive

Carrying on:
How did O=C(COC(=O)COc1ccc(Cl)cc1Cl)NC1CCS(=O)(=O)C1 (centres undefined) do in these assays?
DT40 TDP1 CPT: 8.0%; uPA surface inh: inconclusive; TDP1 inh: 0.3%; DT40 TDP1 no CPT: 3.8%

How did O=C(Nc1cccc(F)c1)c1cc(S(=O)(=O)NCCC2=CCCCC2)ccc1F do in these assays?
DT40 TDP1 CPT: inconclusive; uPA surface inh: -9.7%; TDP1 inh: 4.2%; DT40 TDP1 no CPT: inconclusive; miR-21 FLuc: inconclusive

What do the screens show for `Cc1cc(C)cc(NC(=O)c2cc(S(=O)(=O)NCCC3=CCCCC3)ccc2F)c1`?
DT40 TDP1 CPT: inconclusive; TDP1 inh: 2.6%; DT40 TDP1 no CPT: inconclusive; miR-21 FLuc: 3.3%

What do the screens show for `COc1ccc(C)cc1NC(=O)c1cc(S(=O)(=O)NCCC2=CCCCC2)ccc1F`?
DT40 TDP1 CPT: 20.6µM*; TDP1 inh: 0.0%; DT40 TDP1 no CPT: inconclusive; miR-21 FLuc: 8.2%

What do the screens show for `COc1ccccc1NC(=O)c1cc(S(=O)(=O)NCCC2=CCCCC2)ccc1F`?
DT40 TDP1 CPT: 23.1µM*; TDP1 inh: 5.2%; DT40 TDP1 no CPT: inconclusive; miR-21 FLuc: 4.8%

What do the screens show for `CCCCC(=O)NC(c1ccccc1OC)c1ccc2cccnc2c1O` (centres undefined)?
DT40 TDP1 CPT: 20.6µM*; uPA surface inh: -12.1%; TDP1 inh: 8.0%; DT40 TDP1 no CPT: 18.4µM*; miR-21 FLuc: inconclusive

How did CCCC(=O)NC(c1ccccc1OC)c1ccc2cccnc2c1O (centres undefined) do in these assays?
DT40 TDP1 CPT: 4.11µM*; uPA surface inh: -3.3%; TDP1 inh: 7.3%; DT40 TDP1 no CPT: 4.11µM*; miR-21 FLuc: inconclusive

What do the screens show for `COc1ccc(C(=O)CSc2nc(C)cc(C)c2C(=O)Nc2ccccc2C)cc1`?
DT40 TDP1 CPT: inconclusive; TDP1 inh: 0.5%; DT40 TDP1 no CPT: 14.6µM*; miR-21 FLuc: 4.6%

What do the screens show for `Cc1ccc(C(=O)CSc2nc(C)cc(C)c2C(=O)Nc2cccc(C)c2)cc1`?
DT40 TDP1 CPT: 20.6µM*; TDP1 inh: -5.7%; DT40 TDP1 no CPT: inconclusive; miR-21 FLuc: -17.8%

How did COc1ccccc1NC(=O)c1c(C)cc(C)nc1SCC(=O)Nc1ccc(C)cc1 do in these assays?
DT40 TDP1 CPT: inconclusive; TDP1 inh: 0.5%; DT40 TDP1 no CPT: inconclusive; miR-21 FLuc: 4.0%

How did Cc1ccc(Cn2c(SCc3ccc(C(=O)N4CCCCCC4)cc3)nc3ccncc32)cc1 do in these assays?
DT40 TDP1 CPT: inconclusive; TDP1 inh: 0.0%; DT40 TDP1 no CPT: 20.6µM*; miR-21 FLuc: 21.6%

What do the screens show for `O=C(NC1CCCC1)c1ccc(CSc2nc3ccncc3n2Cc2ccccc2F)cc1`?
DT40 TDP1 CPT: inconclusive; TDP1 inh: 4.9%; DT40 TDP1 no CPT: inconclusive; miR-21 FLuc: -29.2%

How did O=C(c1ccc(CSc2nc3ccncc3n2Cc2ccccc2F)cc1)N1CCCCCC1 do in these assays?
DT40 TDP1 CPT: inconclusive; TDP1 inh: 3.9%; DT40 TDP1 no CPT: 25.9µM*; miR-21 FLuc: -12.4%

What do the screens show for `Cc1ccc(Cn2c(SCc3ccc(C(=O)N4CCCCC4)cc3)nc3ccncc32)cc1`?
DT40 TDP1 CPT: 18.4µM*; TDP1 inh: 7.6%; DT40 TDP1 no CPT: 8.2µM*; miR-21 FLuc: 24.5%

What do the screens show for `O=C1CCCN1CC(O)CS(=O)(=O)Cc1ccc(Cl)cc1Cl` (centres undefined)?
DT40 TDP1 CPT: 9.1%; uPA surface inh: 18.8%; DT40 TDP1 no CPT: 6.1%; miR-21 FLuc: 0.6%

How did COc1ccc(OCC(=O)Nc2nc3c(s2)CCCC3)cc1 do in these assays?
DT40 TDP1 CPT: inconclusive; uPA surface inh: -0.1%; TDP1 inh: 8.6%; DT40 TDP1 no CPT: inconclusive; miR-21 FLuc: -20.6%

What do the screens show for `O=C(NC(=S)Nc1nc2c(s1)CCCC2)c1ccccc1`?
DT40 TDP1 CPT: inconclusive; uPA surface inh: 4.3%; TDP1 inh: 2.7%; DT40 TDP1 no CPT: 29.1µM*; miR-21 FLuc: -52.9%

Results for COC(=O)c1ccc(C(=O)NC(=S)Nc2nc3c(s2)CCCC3)cc1 ?
DT40 TDP1 CPT: inconclusive; uPA surface inh: 0.2%; TDP1 inh: 2.8%; DT40 TDP1 no CPT: 16.4µM*; miR-21 FLuc: -57.0%
